Ratio IC50 data for one molecule are collected here from ChEMBL document CHEMBL4017533, “Molecular Recognition of Agonists and Antagonists by the Nucleotide-Activated G Protein-Coupled P2Y2 Receptor” (J Med Chem, 2017).

Structures are written as SMILES.

Assay [1] can be described thus: Selectivity ratio of IC50 for P2Y2 receptor Y306F mutant (unknown origin) to IC50 for wild type P2Y2 receptor (unknown origin). The conditions noted are these: Homo sapiens.
Assay [2] deals with P2Y1 receptor (Homo sapiens). The experiment in a line: Selectivity ratio of IC50 for P2Y1 receptor A286W mutant (unknown origin) to IC50 for wild type P2Y1 receptor (unknown origin).
Assay [3] concerns P2Y1 receptor (Homo sapiens). The experiment in a line: Selectivity ratio of IC50 for P2Y1 receptor R195A mutant (unknown origin) to IC50 for wild type P2Y1 receptor (unknown origin).
Assay [4] relates to P2Y1 receptor (Homo sapiens). Briefly: Selectivity ratio of IC50 for P2Y1 receptor Y303F mutant (unknown origin) to IC50 for wild type P2Y1 receptor (unknown origin).
Assay [5] deals with P2Y1 receptor (Homo sapiens). Briefly: Selectivity ratio of IC50 for P2Y1 receptor K46A mutant (unknown origin) to IC50 for wild type P2Y1 receptor (unknown origin).

Consider `CNc1nc(I)nc2c1ncn2[C@H]1C[C@H](OP(=O)(O)O)[C@]2(COP(=O)(O)O)C[C@H]12`, for which the Ratio IC50 came out at 129 in assay [1]; 45 in assay [2]; 8 in assay [3]; 156 in assay [4]; 23 in assay [5].
